Results from patent US11407741B2, “Compounds and their use as selective inhibitors of caspase-2” (priority 2017, dated 2022).

Molecular target: T1, Caspase-3 (Homo sapiens, UniProt P42574)
T1 construct: the Caspase-2 and Caspase-3 are human recombinant active enzymes; purchased R&D Systems 707-C3-010/CF
T1 sequence (P42574 29-175 limits assumed): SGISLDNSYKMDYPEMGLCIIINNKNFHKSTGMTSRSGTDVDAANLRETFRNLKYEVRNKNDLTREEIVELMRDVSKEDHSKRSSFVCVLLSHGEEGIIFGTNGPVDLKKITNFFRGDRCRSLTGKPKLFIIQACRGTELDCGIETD
T1 sequence (P42574 176-277 limits assumed): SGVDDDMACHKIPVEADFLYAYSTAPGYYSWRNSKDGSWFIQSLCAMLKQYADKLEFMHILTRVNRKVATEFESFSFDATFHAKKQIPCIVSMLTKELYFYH
Assay: Caspase-3 inhibition assay for reversible inhibitors (IC50, Ki)
Type: biochemical
Procedure: A preliminary step in the characterization of an inhibitor is the determination of its IC50. The IC50 is the necessary concentration of an inhibitor to decrease the enzyme activity by 50% of its maximum and uninhibited value.
The compound, at different concentrations, is incubated with the enzyme and buffer for 30 minutes at 37° C. to allow formation of the Enzyme-Inhibitor complex. The reaction is initiated by addition of buffer and substrate, and then activity is measured over 15 minutes for the determination of initial velocities.
The enzyme and the inhibitor (or DMSO as control) are incubated for 30 minutes at 37° C. The complex thus formed is diluted to 100th in the buffer/substrate mixture and then the activity measurement is started over 20 minutes. The initial rate obtained for the DMSO represents the 100% activity and will serve as a reference for the quantification of the residual activity of the enzyme in the presence of the inhibitor.
The reaction is started over 20 minutes upon addition of the buffer-substrate mixture.
Initial velocity values in RFU·min^−1 are reduced to Specific Activity (SA)values (pmol/min/μg enzyme) from an AMC standard range (1 RFU→0.02 pmol). […]

`CC(=O)N[C@@H](CC(=O)O)C(=O)N[C@@H](CCC(=O)O)C(=O)N[C@H](C(=O)N[C@H](C=O)CC(=O)O)C(C)C` [Ac-DEVD-CHO] showed an IC50 of 0.7 ± 0.03 nM and a Ki of 0.159 nM.
